pIC50: −log10 of the molar value.
What was measured:
HeLa S3 cells = test: Test for growth inhibition of HeLa S3 cells; details: read-out: Cell growth inhibition (IC50), 72 hours with test compound, Cell Proliferation Kit II
Procedure: Test for Growth Inhibition of Hela S3 Cells
HeLa S3 cells prepared at 1×10^4 cells/ml in MEM culture medium containing 10% fetal bovine serum and 2 mM glutamine were added to each well of a 96-well microtiter plate (0.1 ml for each well). The cells were cultured at 37° C. in a CO2 incubator for 24 hours, and then 0.05 ml of test compound appropriately diluted with the above medium was added to each well, and then the mixture was cultured at 37° C. in a CO2 incubator for 72 hours. After the culture supernatant was removed, each well was washed with 0.1 ml of PBS buffer twice, and 0.1 ml of the aforementioned medium was added to each well again.
Cell Proliferation Kit II (Boehringer Mennheim) was used for measurement of cell number in each well. After a coloring reaction reagent was added, the plate was warmed to 37° C. in a CO2 incubator for 3 hours. Then, absorbances at 490 nm and 655 nm were measured by a microplate reader, and a value (difference of absorbance) was calculated for each well by subtracting the absorbance at […] from the absorbance at 490 nm. By comparing the differences of absorbance for cells without treatment and cells treated with a test compound at a known concentration, a concentration of test compound which inhibited the cell growth by 50% was calculated, and the value obtained was determined as IC50. The values of RNR inhibitory activity obtained in Example 8, and the values of cell growth inhibitory activity obtained in Example 9 are shown in the following tables (the compound numbers used in the tables correspond to the compound numbers shown in the aforementioned tables).

By UniProt entry, the sequences of proteins in these tests, tags left out.
UniProt P23921, whole entry: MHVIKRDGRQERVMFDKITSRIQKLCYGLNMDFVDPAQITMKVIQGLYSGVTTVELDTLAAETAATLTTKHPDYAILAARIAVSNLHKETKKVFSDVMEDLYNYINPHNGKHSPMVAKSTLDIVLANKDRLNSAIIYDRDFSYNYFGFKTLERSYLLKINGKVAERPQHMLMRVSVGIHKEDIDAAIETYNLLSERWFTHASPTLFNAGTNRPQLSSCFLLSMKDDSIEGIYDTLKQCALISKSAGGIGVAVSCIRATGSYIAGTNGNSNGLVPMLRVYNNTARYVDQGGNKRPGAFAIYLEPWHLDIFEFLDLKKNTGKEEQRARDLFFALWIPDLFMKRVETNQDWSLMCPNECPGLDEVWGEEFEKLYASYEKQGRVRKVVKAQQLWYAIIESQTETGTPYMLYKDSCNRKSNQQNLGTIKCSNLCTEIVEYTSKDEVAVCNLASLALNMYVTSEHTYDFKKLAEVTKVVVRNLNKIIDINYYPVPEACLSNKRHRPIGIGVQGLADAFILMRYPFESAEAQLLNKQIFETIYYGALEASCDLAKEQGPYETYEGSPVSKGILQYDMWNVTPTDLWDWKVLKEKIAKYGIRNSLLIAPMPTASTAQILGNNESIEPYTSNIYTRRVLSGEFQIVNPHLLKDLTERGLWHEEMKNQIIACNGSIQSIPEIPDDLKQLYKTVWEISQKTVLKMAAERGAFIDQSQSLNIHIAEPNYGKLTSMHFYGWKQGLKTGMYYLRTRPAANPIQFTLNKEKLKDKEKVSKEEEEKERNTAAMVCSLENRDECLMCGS
UniProt P31350, whole entry: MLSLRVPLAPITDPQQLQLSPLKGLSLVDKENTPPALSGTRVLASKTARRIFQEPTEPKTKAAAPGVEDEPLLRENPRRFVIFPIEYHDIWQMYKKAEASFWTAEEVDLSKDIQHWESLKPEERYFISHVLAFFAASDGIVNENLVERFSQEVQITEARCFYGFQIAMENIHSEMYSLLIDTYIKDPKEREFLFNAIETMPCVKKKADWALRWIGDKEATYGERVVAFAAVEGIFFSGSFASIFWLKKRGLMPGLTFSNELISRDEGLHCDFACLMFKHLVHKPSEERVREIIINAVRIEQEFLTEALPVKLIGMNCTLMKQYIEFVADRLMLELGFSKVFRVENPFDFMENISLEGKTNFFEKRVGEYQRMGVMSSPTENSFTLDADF

[1] = target: human RNR (purified R1 and R2 subunits) (Homo sapiens, UniProt P23921+P31350); test: In vitro measurement of human RNR inhibitory activity (conversion of CDP to dCDP, HPLC); details: read-out: RNR Inhibition (IC50), 100 μM CDP, 37° C., 30 minutes
Procedure: Test of Measurement of RNR Inhibitory Activity
(a) Preparation of R1 and R2 subunits of human RNR
(b) In vitro Measurement of Human RNR Inhibitory Activity
By using the above-obtained human RNR subunits, inhibitory activity on the human RNR was tested in vitro. The composition of the reaction mixture is as follows:
50 mM HEPES-NaOH (pH 7.6)
40 ng/ml Purified human RNR R1 subunit, and
40 ng/ml Purified human RNR R2 subunit.
The above reaction mixture (25 μl) containing a test compound at an appropriate final concentration was prepared, and the conversion from CDP to dCDP by RNR was carried out at 37° C. for 30 minutes. The reaction mixture was subjected to a heat treatment at 95° C. for 5 minutes, and centrifuged at 10,000× g for 5 minutes at 4° C. 20 μl of the supernatant was collected and 5 μl of 25 mg/ml snake venom (Sigma) was added thereto. Dephosphorylation reaction was carried out at 37° C. for 60 minutes to allow complete conversion of CDP, ATP and dCDP as the reaction product present in the reaction mixture into CR, AR and CdR, respectively. The reaction mixture was subjected to a heat treatment at 95° C. for 5 minutes, and centrifuged at 10,000× g for 5 minutes at 4° C. 180 μl of acetonitrile was added to 20 μl of the supernatant, and the mixture was centrifuged again at 10,000× g for 5 minutes at 4° C., and the resulting supernatant was used as a sample for analysis. The analysis was performed by high performance liquid chromatography. Analytical conditions are as follows:
Column: Licrospher NH2 (Merck)
Eluent: acetonitrile/water (90:10, V/V).
CdR in the analyzed sample was identified and its concentration was determined by comparison with elution time and peak area with those of CdR at known concentration. A concentration of a test compound which inhibited the RNR activity by 50% under the aforementioned conditions was calculated by comparing a CdR concentration in a sample, obtained from the reaction without drug treatment, with a CdR concentration in a sample obtained from the reaction wherein the test compound at a known concentration was added, and the value obtained was determined as IC50.

Row | SMILES | pIC50 (HeLa S3 cells) | pIC50 [1]
1 | Oc1ccc(SCCN(CCSc2ccc(O)cc2)CC(F)(F)F)cc1 | 5.60 | 6.21
2 | CCCC(=O)N(CCSc1ccc(O)cc1)CCSc1ccc(O)cc1 | 5.42 | 5.40
3 | O=C(CSc1ccc(O)cc1)NCCCSc1ccc(O)cc1 | 4.87 | 5.42
4 | O=C(CSc1ccc(O)cc1)OCCCOC(=O)CSc1ccc(O)cc1 | 4.30 | 5.40
5 | O=C(CSc1ccc(O)cc1)NCCSc1ccc(O)cc1 | 5.12 | 5.56
6 | Oc1ccc(SCCN(CCF)CCSc2ccc(O)cc2)cc1 | 4.92 | 5.56

Reference: patent publication US6608061B2, “Bisaryl compound and medicament for cancer treatment comprising the same” (Kyoma Hakko Kogyo Co., Ltd., priority 1997, dated 2003)
